Measurements: patent US20200206312A1

Amino acid sequences for entries named in this document (tags omitted). Chains listed by the source or under a name are the forms on record and can include a tag or linker.
Recombinant human NRP1 with His Tag (Sino Biological Inc.; Cat #1001-H08H) (human), O14786, UniProt O14786, other isoform, or with tags, fused parts or gaps H08H H08H limits assumed: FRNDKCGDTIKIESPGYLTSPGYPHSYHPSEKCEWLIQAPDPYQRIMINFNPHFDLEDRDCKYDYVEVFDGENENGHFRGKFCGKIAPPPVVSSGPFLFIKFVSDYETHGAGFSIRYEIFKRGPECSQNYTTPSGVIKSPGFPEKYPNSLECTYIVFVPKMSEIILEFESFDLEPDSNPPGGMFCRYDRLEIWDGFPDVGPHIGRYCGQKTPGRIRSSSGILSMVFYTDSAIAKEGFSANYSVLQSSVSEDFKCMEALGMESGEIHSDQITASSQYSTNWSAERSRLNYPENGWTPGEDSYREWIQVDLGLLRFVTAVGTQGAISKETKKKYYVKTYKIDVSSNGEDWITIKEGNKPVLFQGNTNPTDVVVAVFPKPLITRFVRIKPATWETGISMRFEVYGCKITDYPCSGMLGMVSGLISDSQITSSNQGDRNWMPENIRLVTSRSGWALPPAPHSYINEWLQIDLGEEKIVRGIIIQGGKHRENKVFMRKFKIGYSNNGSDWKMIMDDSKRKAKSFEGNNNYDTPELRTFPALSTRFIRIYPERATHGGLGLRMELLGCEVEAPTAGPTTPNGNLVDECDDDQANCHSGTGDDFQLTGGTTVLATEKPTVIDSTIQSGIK

Target: Recombinant human NRP1 with His Tag (Sino Biological Inc.; Cat #1001-H08H) (human), O14786
Assay: BLI (Octet Red96), biotinylated peptide on streptavidin sensor, NRP1 in solution

Binder MCMPCFTTDHQMAR (modifications not checked) [NH2(Biotin)-M-C(Capped)-M-P-C(Capped)-[…]OOH] has a Kd of 169 nM.
